Reference: publication PMC12102759 (Protein Science : A Publication of the Protein Society, 2025)

Test system: YES SH3
Assay type: binding, human

Row | Sequence | PSSM value of the single amino acid variant (DMS by phage display)
1 | TSSIQSRPLPSPPKFT S11M (TSSIQSRPLPMPPKFT) | 0.008974
2 | TSSIQSRPLPSPPKFT S6G (TSSIQGRPLPSPPKFT) | 0.1396
3 | TSSIQSRPLPSPPKFT T1P (PSSIQSRPLPSPPKFT) | 0
4 | TSSIQSRPLPSPPKFT I4K (TSSKQSRPLPSPPKFT) | 0.05417
5 | TSSIQSRPLPSPPKFT I4Y (TSSYQSRPLPSPPKFT) | 0.0009824
6 | TSSIQSRPLPSPPKFT P12R (TSSIQSRPLPSRPKFT) | 0.001863
7 | TSSIQSRPLPSPPKFT I4T (TSSTQSRPLPSPPKFT) | 0.1326
8 | TSSIQSRPLPSPPKFT Q5K (TSSIKSRPLPSPPKFT) | 0
9 | TSSIQSRPLPSPPKFT S3T (TSTIQSRPLPSPPKFT) | 0.0229
10 | TSSIQSRPLPSPPKFT S3S | 0.02815
11 | TSSIQSRPLPSPPKFT P10L (TSSIQSRPLLSPPKFT) | 0.01332
12 | TSSIQSRPLPSPPKFT R7P (TSSIQSPPLPSPPKFT) | 0
13 | TSSIQSRPLPSPPKFT P13H (TSSIQSRPLPSPHKFT) | 0.001935
14 | TSSIQSRPLPSPPKFT P10N (TSSIQSRPLNSPPKFT) | 0.01332
15 | TSSIQSRPLPSPPKFT F15G (TSSIQSRPLPSPPKGT) | 0.03508
16 | TSSIQSRPLPSPPKFT K14Q (TSSIQSRPLPSPPQFT) | 0.008096
17 | TSSIQSRPLPSPPKFT L9G (TSSIQSRPGPSPPKFT) | 0
18 | TSSIQSRPLPSPPKFT S3R (TSRIQSRPLPSPPKFT) | 0
19 | TSSIQSRPLPSPPKFT S11Y (TSSIQSRPLPYPPKFT) | 0.004211
20 | TSSIQSRPLPSPPKFT F15I (TSSIQSRPLPSPPKIT) | 0.06266
21 | TSSIQSRPLPSPPKFT R7T (TSSIQSTPLPSPPKFT) | 0.1212
22 | TSSIQSRPLPSPPKFT P8L (TSSIQSRLLPSPPKFT) | 0.02363
23 | TSSIQSRPLPSPPKFT R7A (TSSIQSAPLPSPPKFT) | 0.05268

Row | Sequence | PSSM value of the single amino acid variant (DMS by phage display)
24 | TSSIQSRPLPSPPKFT P10R (TSSIQSRPLRSPPKFT) | 0
25 | TSSIQSRPLPSPPKFT S2H (THSIQSRPLPSPPKFT) | 0.001057
26 | TSSIQSRPLPSPPKFT S3L (TSLIQSRPLPSPPKFT) | 0.227
27 | TSSIQSRPLPSPPKFT F15P (TSSIQSRPLPSPPKPT) | 0.1419
28 | TSSIQSRPLPSPPKFT T1E (ESSIQSRPLPSPPKFT) | 0.02999
29 | TSSIQSRPLPSPPKFT F15V (TSSIQSRPLPSPPKVT) | 0.0361
30 | TSSIQSRPLPSPPKFT K14S (TSSIQSRPLPSPPSFT) | 0.09233
31 | TSSIQSRPLPSPPKFT P12I (TSSIQSRPLPSIPKFT) | 0.003902
32 | TSSIQSRPLPSPPKFT S2P (TPSIQSRPLPSPPKFT) | 0.01873
33 | TSSIQSRPLPSPPKFT I4V (TSSVQSRPLPSPPKFT) | 0.0204
34 | TSSIQSRPLPSPPKFT P13W (TSSIQSRPLPSPWKFT) | 0.02294
35 | TSSIQSRPLPSPPKFT R7L (TSSIQSLPLPSPPKFT) | 0.01345
36 | TSSIQSRPLPSPPKFT S11W (TSSIQSRPLPWPPKFT) | 0.003236
37 | TSSIQSRPLPSPPKFT T1R (RSSIQSRPLPSPPKFT) | 0.01076
38 | TSSIQSRPLPSPPKFT R7E (TSSIQSEPLPSPPKFT) | 0.02661
39 | TSSIQSRPLPSPPKFT L9R (TSSIQSRPRPSPPKFT) | 0
40 | TSSIQSRPLPSPPKFT F15R (TSSIQSRPLPSPPKRT) | 0.01536
41 | TSSIQSRPLPSPPKFT F15D (TSSIQSRPLPSPPKDT) | 0
42 | TSSIQSRPLPSPPKFT I4I | 0.05653
43 | TSSIQSRPLPSPPKFT S2E (TESIQSRPLPSPPKFT) | 0.04579
44 | TSSIQSRPLPSPPKFT S6F (TSSIQFRPLPSPPKFT) | 0.004503
45 | TSSIQSRPLPSPPKFT P12H (TSSIQSRPLPSHPKFT) | 0.02579
46 | TSSIQSRPLPSPPKFT P12Y (TSSIQSRPLPSYPKFT) | 0.1364
